From US20070254863A1 (published 2007) come the findings set out here.

The chains behind the UniProt entries cited, without tags or fusion partners.
UniProt P34972, whole entry: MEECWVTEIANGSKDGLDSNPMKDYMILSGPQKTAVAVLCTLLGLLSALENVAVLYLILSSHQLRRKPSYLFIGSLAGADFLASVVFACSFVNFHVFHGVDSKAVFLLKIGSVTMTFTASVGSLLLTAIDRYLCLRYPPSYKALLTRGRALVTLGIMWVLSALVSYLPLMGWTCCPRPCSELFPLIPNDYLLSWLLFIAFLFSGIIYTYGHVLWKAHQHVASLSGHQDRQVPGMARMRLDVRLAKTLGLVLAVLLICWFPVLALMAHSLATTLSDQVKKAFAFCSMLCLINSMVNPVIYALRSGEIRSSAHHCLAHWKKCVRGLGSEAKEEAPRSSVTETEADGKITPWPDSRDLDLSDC

This experiment concerns the target human cannabinoid CB2 receptor (Homo sapiens, UniProt P34972). In words: biochemical.

pKi: −log10 of the molar value.

As to `CCCCCCC(C)(C)c1cc(OC)c(C2C=C(CO)[C@H]3C[C@@H]2C3(C)C)c(OC)c1` (stereo in doubt) [HU308, {4-[4-(1,1-Dimethyl-heptyl)-2,6-dimethoxy-phenyl]-6,6-dimethyl-bicyclo[3.1.1]hept-2-en-2-yl}-methanol, reference compound], the negative-log Ki (pKi) is 7.80.

By pKi is commonly meant the negative decadic logarithm of the Ki, by convention in mol/L.
